From PubChem
Compounds with a hit are over-represented: about 16% of the library has one in this group of screens.
DT40 TDP1 CPT = growth inhibition of DT40 Tdp1-/-;hTDP1 cells with camptothecin (screen for TDP1 inhibitors); chicken DT40 Tdp1-/-;hTDP1 cells + 20 nM CPT, ATP luminescence, 48 h; Potency, µM (titrated, usually from 46.2 µM), inactives show top-dose activity change, negative = growth inhibition, hits mostly inhibitors; AID 686979; 420,000 tested, 12% active; also: potency is read from the fitted curve at half-maximal effect; % is scaled to controls: 0 for no effect and ±100 for the full control effect; nearly all actives have a fitted effect of over 55% in size
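Chicken DT40 Tdp1-/- cells complemented with human TDP1, 400 cells/well, exposed to compounds plus 20 nM camptothecin for at least 48 h at 37 C; viability read as ATP content by CellTiter-Glo luminescence.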
miR-21 reporter = miR-21 reporter, rising signal; HeLa miR-21 FLuc reporter, luciferase, 48 h; Potency, µM (highest dose often 38.3 µM), for the others: top-dose reporter change, positive = more light; 340,000 tested, under 10 active; AID 2288; active = well fitted rising curve with a large enough effect; inconclusive = small, poorly fitted or top-dose-only effect; inactive = no such curve, though single readings can be large or run the other way;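 further: % of control where 0% means no effect; miR-21 action dims this reporter so a rising signal means less miR-21 action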
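HeLa cells stably expressing CMV-driven firefly luciferase with a downstream miR-21 binding sequence, endogenously expressing miR-21, were treated with titrations (up to about 40uM final) for 48 hours at 37 degree Celsius. Luciferase luminescence was read after lysis.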
DT40 TDP1 no CPT = qHTS for Inhibitors of human tyrosyl-DNA phosphodiesterase 1 (TDP1): qHTS in cells in absence of CPT; DT40 Tdp1-/- hTDP1 cells, no CPT, ATP luminescence, 48 h; Potency, µM (series often up to 46.2 µM), for inactives: top-dose activity change, negative = growth inhibition, usual class: inhibitors; 420,000 tested, 15% active; AID 686978, 2013; also: potency is read from the fitted curve at half-maximal effect; % is scaled to controls: 0 for no effect and ±100 for the full control effect; nearly all actives have a fitted effect of over 55% in size
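Seeded 400 DT40-hTDP1 cells/well (vehicle DMSO, no 20 nM CPT); pinned compounds; ≥48 hr at 37 °C; CellTiter-Glo luminescence as viability measure.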
TDP1 inh = inhibitors of human tyrosyl-DNA phosphodiesterase TDP1. recombinant TDP1, AlphaScreen DNA substrate cleavage. Potency, µM (series often up to 130 µM), inactives show at the top dose activity change, negative = inhibition, hits mostly inhibitors. 350,000 tested, 0.28% active; also: potency is read from the fitted curve at half-maximal effect; % is scaled to controls: 0 for no effect and ±100 for the full control effect; nearly all actives have a fitted effect of over 40% in size
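Tdp1 1 nM final; 15 min RT w/ cpd; substrate 15 nM, 5 min; beads 10 ug/ml, 10 min; AlphaScreen read. Neg ctrl: no enzyme.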
uPA generation = cell surface uPA generation inhibition; cell surface uPA generation assay, qHTS; Potency, µM (titrated, usually from 38.3 µM), for inactives: top-dose activity change, negative = inhibition, usual class: inhibitors; 330,000 tested, 0.31% active; AID 540303; active = well fitted inhibition curve with a large enough effect; inconclusive = small, poorly fitted or top-dose-only effect; inactive = no such curve, though single readings can be large or run the other way; tested in mouse RAW 264.7 cells; also: potency is read from the fitted curve at half-maximal effect; % is scaled to controls: 0 for no effect and ±100 for the full control effect; nearly all actives have a fitted effect of over 55% in size
The depositor's hits bear a star; ? = inconclusive; . = no result given; [ ] = dose if it differs, or a comment. Unless noted, calls follow the shape of the dose curve; as a rule, active = well fitted curve in the direction sought with a large enough effect; inconclusive = small, poorly fitted or top-dose-only effect, or another doubt; inactive = no such curve, though single readings can be large; an effect the other way counts as inactive or inconclusive.

1	O=C(c1ccc(COc2ccc(Cl)cc2Cl)o1)N1CCCC1
2	COc1cccc(NCc2nnc3n2CCCCC3)c1
3	CCCCCCn1cnc2c(oc3nc4c(cc32)CCCC4)c1=O
4	Cc1ccc2c(CN3CCN(S(=O)(=O)c4ccccc4C(F)(F)F)CC3)cc(=O)oc2c1C
5	CCc1ccc2c(CN3CCN(S(=O)(=O)c4ccccc4F)CC3)cc(=O)oc2c1
6	O=C(CSc1nnc(-c2ccco2)o1)NCCc1ccccc1
7	NNc1nncc2ccccc12
8	CC(C)CC(N)c1csc(Nc2cnccn2)n1 (stereo not drawn)

| screen / no. | 1 | 2 | 3 | 4 | 5 | 6 | 7 | 8 |
| --- | --- | --- | --- | --- | --- | --- | --- | --- |
| TDP1 inh | 2.6% | -2.7% | 1.4% | 0.2%[56.1 µM] | 0.8% | 0.4% | -4.3%[56.1 µM] | . |
| miR-21 reporter | -45.4% | -12.5% | -36.7% | . | . | . | . | . |
| DT40 TDP1 CPT | -29.5% | -2.1% | 23.1µM* | ? | -95.1% | 28.6% | -8.7% | 13µM* |
| DT40 TDP1 no CPT | 18.4µM* | -0.5% | -28.6% | 23.1µM* | 23.1µM* | 6.0% | -22.1% | 9.2µM* |
| uPA generation | 2.4% | . | -9.1% | 6.0% | -8.5% | -7.0% | . | . |

Next section; it opens with the three that closed the last part.
6	O=C(CSc1nnc(-c2ccco2)o1)NCCc1ccccc1
7	NNc1nncc2ccccc12
8	CC(C)CC(N)c1csc(Nc2cnccn2)n1 (stereo not drawn)
9	Oc1ccc(-c2csc(Nc3ccccn3)n2)c(O)c1
10	CC(C)CC(N)c1csc(Nc2ccccn2)n1 (stereo not drawn)
11	NC(COCc1ccccc1)c1csc(Nc2ccccn2)n1 (stereo not drawn)
12	NC(COCc1ccccc1)c1csc(Nc2nncc3ccccc23)n1 (stereo not drawn)
13	Cc1cc(NC(=O)Cn2nc(-c3cccs3)ccc2=O)cc(C)c1Br
14	Cc1c(Br)ccc(NC(=O)Cn2nc(-c3cccs3)ccc2=O)c1C
15	C=CCSc1nc2ccsc2c(=O)n1-c1cccnc1
16	Cc1ccc(NC(=S)/N=C(\N)Nc2nc(C)c3cc(C)ccc3n2)c(C)c1

| screen / no. | 6 | 7 | 8 | 9 | 10 | 11 | 12 | 13 | 14 | 15 | 16 |
| --- | --- | --- | --- | --- | --- | --- | --- | --- | --- | --- | --- |
| TDP1 inh | 0.4% | -4.3%[56.1 µM] | . | . | . | . | . | 0.0% | . | 5.8% | 5.4% |
| miR-21 reporter | . | . | . | -42.0% | . | . | . | 4.5% | 0.1% | -8.9% | 6.0% |
| DT40 TDP1 CPT | 28.6% | -8.7% | 13µM* | ? | 14.6µM* | 25.9µM* | ? | 29.1µM* | -8.8% | -29.6% | 20.6µM* |
| DT40 TDP1 no CPT | 6.0% | -22.1% | 9.2µM* | ? | ? | ? | 20.6µM* | 29.1µM* | -19.0% | -9.2% | 11.6µM* |
| uPA generation | -7.0% | . | . | ? | . | . | . | 1.8% | -1.8% | -3.4% | -11.8% |

17	CCOc1ccc2nc(N/C(N)=N/C(=S)Nc3cccc(OC)c3)nc(C)c2c1
18	CCOc1ccc2nc(N/C(N)=N/C(=S)Nc3cccc(C)c3)nc(C)c2c1
19	COc1ccc2nc(N/C(N)=N/C(=S)Nc3c(C)cccc3C)nc(C)c2c1
20	COc1ccc2nc(N/C(N)=N/C(=S)Nc3cccc(C)c3)nc(C)c2c1
21	CC(=O)C(Cc1ccc(Cl)nc1)(Cc1ccc(Cl)nc1)C(C)=O
22	CC(C)=NNc1nc2c(c(=O)[nH]c(=O)n2C)n1CCCc1ccccc1
23	Cc1ccc(-c2nc(CS(=O)(=O)CC(=O)N3CCc4ccccc4C3)c(C)o2)cc1
24	Cc1ccc(-c2nc(CS(=O)(=O)CC(=O)N3CCN(c4ccccc4)CC3)c(C)o2)cc1

| screen / no. | 17 | 18 | 19 | 20 | 21 | 22 | 23 | 24 |
| --- | --- | --- | --- | --- | --- | --- | --- | --- |
| TDP1 inh | 9.6% | 1.9% | 8.2% | 4.7% | 2.7% | . | 4.3% | 11.6% |
| miR-21 reporter | -4.1% | -4.5% | -2.5% | 1.5% | 1.7% | -3.7% | 10.4% | ? |
| DT40 TDP1 CPT | ? | 18.4µM* | 16.4µM* | ? | -8.3% | -8.2% | 18.4µM* | ? |
| DT40 TDP1 no CPT | ? | 20.6µM* | 20.6µM* | 25.9µM* | 3.7% | ? | 20.6µM* | 23.1µM* |
| uPA generation | 4.2% | 2.4% | ? | -1.6% | -3.2% | -0.6% | ? | . |

25	CC(NC(=O)COC(=O)C1=COCCO1)C12CC3CC(CC(C3)C1)C2 (stereo not drawn)
26	CSc1ccc(CCNS(=O)(=O)c2c(C)[nH]c(C)c2C(=O)N2CCCCC2)cc1
27	O=C(CSc1nccc(=O)[nH]1)NCc1ccco1
28	CC(C)(C)c1nc2ccccc2c2nnc(SCC(=O)NCc3ccco3)n12
29	O=C(CSc1nc(C2CCCCC2)nc2ccccc12)NCc1ccco1
30	C=CCn1c(SCC(=O)NCc2ccco2)nnc1-c1ccc2ccccc2n1
31	Cc1cc(=O)[nH]c(SCC(=O)NCc2ccco2)n1

| screen / no. | 25 | 26 | 27 | 28 | 29 | 30 | 31 |
| --- | --- | --- | --- | --- | --- | --- | --- |
| TDP1 inh | -5.1% | 4.6% | 14.1µM* | 8.2% | . | -1.1% | . |
| miR-21 reporter | -23.5% | -0.4% | -0.4% | -5.6% | -3.1% | 7.2% | 2.0% |
| DT40 TDP1 CPT | 0.9% | ? | 14.2% | ? | ? | ? | -10.9% |
| DT40 TDP1 no CPT | -12.4% | ? | -10.7% | ? | 20.6µM* | 18.4µM* | -12.0% |
| uPA generation | -6.2% | 3.5% | -1.7% | 9.8% | . | -3.9% | 1.5% |
